## AlphaSeq binding of Ab-14 heavy chain variants to a spike HR2 peptide

Antigen: PDVDLGDISGINAS, a 14-residue peptide of the SARS-CoV-2 spike HR2 region.

Each scFv is VH, a 15-residue (Gly4Ser)3 linker, VL, as in the parent Ab-14, and differs from it in the CDRs of the heavy chain only.
VH: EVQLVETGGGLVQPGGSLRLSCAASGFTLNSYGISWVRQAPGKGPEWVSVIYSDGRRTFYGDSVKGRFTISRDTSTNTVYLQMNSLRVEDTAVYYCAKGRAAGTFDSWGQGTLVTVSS
VL: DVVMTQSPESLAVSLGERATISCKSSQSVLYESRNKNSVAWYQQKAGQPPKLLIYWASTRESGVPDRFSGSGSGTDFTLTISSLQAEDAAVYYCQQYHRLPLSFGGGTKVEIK

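Phage display of a naive human antibody library on the peptide gave the parent. The library (AAYL49) carries one to three amino acid substitutions per variant, with no insertions or deletions. The assay is AlphaSeq: two haploid yeast populations carry antibody and antigen on their surface. Mating (16 h, 30 °C) was followed by selection of diploids and sequencing of their barcodes. A regression on co-assayed BCL2-family reference pairs converts the normalised counts of each replicate to an apparent Kd. There are three technical replicates.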

Positions count from residue 1 of the parent VH; L29F puts F in place of L. Every variant below is changed at L29 of the VH (sequential numbering). Affinities are written as log10 Kd with Kd in nM; a lower number is a better binder. The mean shown is taken over the replicates in which the pair was detected. An entry "nd" has no value in the source: the pair was not observed among the diploids in any replicate. This suggests poor binding but is not conclusive. Background: pairings of library AAYL49 with three empty control strains gave a value in 15% of cases (median 4.06, 5th percentile 2.83). Values in that range, when seen in few replicates, are hard to tell from nonspecific mating. Parent in this assay: reference entry 0.65, copy in this library 4.11 (one replicate of three).

The variant L29F I34E A102W showed nd (0 of 3 replicates). For F27G L29W R100I, the assay gave 3.83 (1 of 3 replicates). For L29G V50C S107R, the assay gave 5.11 (2 of 3 replicates). With L29G N30S S31P the result was 4.08 (1 of 3 replicates). With L29V F59H R100Q the result was 1.68 (3 of 3 replicates). For L29W I51G, the assay gave 3.03 (1 of 3 replicates).

The variant G26L F27Y L29I gave 2.48 (2 of 3 replicates). The variant L29R V50L F59Q gave nd (0 of 3 replicates). With L29V T58S T104S the result was 3.80 (3 of 3 replicates). With L29Q I34S G99S the result was 3.09 (1 of 3 replicates). For L29Q I51N D62E, the assay gave nd (0 of 3 replicates). With F27R L29R Y60M the result was 4.51 (3 of 3 replicates).

The variant L29T K65T R100T showed nd (0 of 3 replicates). For L29V V50D R100E, the assay gave 4.40 (3 of 3 replicates). For L29V D62K S107C, the assay gave nd (0 of 3 replicates). For L29G A101R A102L, the assay gave nd (0 of 3 replicates). The variant F27I L29E N30D gave nd (0 of 3 replicates). With G26H L29P R57C the result was 5.02 (2 of 3 replicates).

For L29P N30M T58P, the assay gave nd (0 of 3 replicates). The variant G26W L29E S107Y gave 3.66 (1 of 3 replicates). For L29C R100I T104E, the assay gave 4.67 (1 of 3 replicates). The variant L29I gave 1.14 (3 of 3 replicates). The variant L29C S63H K65M gave 4.92 (2 of 3 replicates). With L29N D54H the result was 5.26 (3 of 3 replicates).

The variant G26T L29E S53Q showed 3.84 (1 of 3 replicates). The variant L29N S53H G99A showed nd (0 of 3 replicates). For L29A R57V G61F, the assay gave nd (0 of 3 replicates). The variant L29E S31M R57F showed nd (0 of 3 replicates). For G26H L29E I51R, the assay gave nd (0 of 3 replicates). The variant L29T S35R Y52T gave nd (0 of 3 replicates).

For L29Q V50Y T58N, the assay gave nd (0 of 3 replicates). With L29V F59V G61P the result was 4.08 (1 of 3 replicates). The variant L29A D54H R57Q showed nd (0 of 3 replicates). The variant L29T K65Y gave nd (0 of 3 replicates). The variant L29K I34P F105S gave 3.26 (1 of 3 replicates). With L29Q I34W S107E the result was 4.12 (2 of 3 replicates).

The variant L29Y S31W A102G gave nd (0 of 3 replicates). The variant G26I L29I A101F gave 3.89 (1 of 3 replicates). The variant L29G N30W T104E gave nd (0 of 3 replicates). The variant L29N F59C S63V showed nd (0 of 3 replicates). For L29N I51W Y52M, the assay gave 4.19 (2 of 3 replicates). For L29N S53M A102D, the assay gave 3.94 (2 of 3 replicates).

The last 5 entries again:

With G26I L29I A101F the result was 3.89 (1 of 3 replicates).
With L29G N30W T104E the result was nd (0 of 3 replicates).
With L29N F59C S63V the result was nd (0 of 3 replicates).
With L29N I51W Y52M the result was 4.19 (2 of 3 replicates).
With L29N S53M A102D the result was 3.94 (2 of 3 replicates).

Reference: Engelhart et al. 2022, doi:10.1038/s41597-022-01779-4. File: FLAb, binding data.